From patent US20020031818A1, “Modification of Mdm2 activity” (priority 2000, published 2002)

Molecular target: T1, p53 (Homo sapiens, UniProt P04637)
T1 construct: HA; expressed in transfected cells; host or cells: Mdm2/p53 double null cells
Experiment: p53 level in p53/Mdm2 double null cells co-transfected with p53 and Mdm2 forms
Assay type: cell-based

## K1: Mdm2 mutant with lysine 446 substituted for arginine
  amount of expression construct required to achieve the same decrease in the level of p53: 0.5 mg
